Experimental data from PMC4800991 (Molecular pharmaceutics, 2015).

Target: T1, mouse THTR-2 (mTHTR-2) (Mus musculus, UniProt Q99PL8)
T1 sequence (Q99PL8 1-488): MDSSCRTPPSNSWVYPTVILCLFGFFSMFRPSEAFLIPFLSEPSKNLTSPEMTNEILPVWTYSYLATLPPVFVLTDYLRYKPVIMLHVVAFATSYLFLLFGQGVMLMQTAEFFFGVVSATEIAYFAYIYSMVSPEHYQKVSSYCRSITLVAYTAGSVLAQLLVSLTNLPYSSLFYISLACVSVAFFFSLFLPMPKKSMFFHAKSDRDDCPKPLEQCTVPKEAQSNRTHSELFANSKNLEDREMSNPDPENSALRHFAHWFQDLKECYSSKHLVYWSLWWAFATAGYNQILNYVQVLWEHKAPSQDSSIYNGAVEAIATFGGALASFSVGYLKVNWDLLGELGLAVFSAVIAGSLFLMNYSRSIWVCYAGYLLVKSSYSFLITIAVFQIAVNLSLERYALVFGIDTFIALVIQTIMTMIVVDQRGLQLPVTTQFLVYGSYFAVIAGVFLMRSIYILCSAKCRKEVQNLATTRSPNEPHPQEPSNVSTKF
Experiment: cell-based

Cc1cnc(Nc2ccc(OCCN3CCCC3)cc2)nc1Nc1cccc(S(=O)(=O)NC(C)(C)C)c1 [fedratinib]
IC50: 22.2 ± 3.99 µM
